# Reference: ChEMBL document CHEMBL1759897, “Discovery of non-peptide, small molecule antagonists of α9α10 nicotinic acetylcholine receptors as novel analgesics for the treatment of neuropathic and tonic inflammatory pain” (Bioorg Med Chem Lett, 2011)
# Test: Ratio of IC50 for alpha9/alpha10 nAChR to IC50 for alpha7 nAChR expressed in Xenopus oocyte
row,Structure (SMILES),Ratio IC50
1,c1ccc(-c2ccc[n+](CCCCCc3cc(CCCCC[n+]4cccc(-c5ccccc5)c4)cc(CCCCC[n+]4cccc(-c5ccccc5)c4)c3)c2)cc1,25
2,c1ccc2c[n+](CCCCCc3cc(CCCCC[n+]4ccc5ccccc5c4)cc(CCCCC[n+]4ccc5ccccc5c4)c3)ccc2c1,35
